The list shows a part of the results, in another mix than the full data. Some results for these compounds are left out of this collection, so the calls shown say nothing about other tests. Records with an inconclusive call do not appear. Active and inactive are the calls of the source. Calls come from the whole dose curve; cell line not stated here.
% is set by controls: 0 for no effect and ±100 for the full control effect.

A short description of this test: qHTS for Antagonists of gsp, the Etiologic Mutation Responsible for Fibrous Dysplasia/McCune-Albright Syndrome: qHTS. Note: nearly all actives have a fitted effect of over 65% in size. To be noted: gsp-mutant cells, cAMP HTRF, 30 min; at 76.9 µM (top of the series). For orientation: Quantitative high-throughput screening tests each substance at several concentrations.
As to `CN(C)C1(CNC(=O)c2ccc(Br)cc2)CCCCC1`, the activity change, negative = inhibition was inactive: 1.82%.

Regarding `COc1cc(C(=O)NCC2(N(C)C)CCCCC2)c([N+](=O)[O-])cc1OC`, the activity change, negative = inhibition is inactive: 4.13%.

In the case of `COc1ccc(Cl)cc1C(=O)NCC1(N(C)C)CCCCC1`, the activity change, negative = inhibition is inactive: 15.7%.

For `COc1cccc(C(=O)NCC2(N3CCCCC3)CCCCC2)c1`, the activity change, negative = inhibition was inactive: 10%.

Regarding `O=C(NCC1(N2CCCCC2)CCCCC1)c1cccc(Cl)c1`, the activity change, negative = inhibition is inactive: 3.14%.

Consider `O=C(OC1CN2CCC1CC2)C(CO)(c1ccccc1)c1ccccc1` (stereo not given), for which the activity change, negative = inhibition was inactive: 3.91%.

With `COc1ccc(Br)c(C(=O)NCC2(N3CCCCC3)CCCCC2)c1`, the activity change, negative = inhibition is inactive: 10.8%.

Consider `O=C(OCCN1CCCC1)C(O)(c1ccccc1)c1ccccc1`, for which the activity change, negative = inhibition was inactive: 0.71%.

`CC(C)Oc1ccc(C(=O)NCC2(N(C)C)CCCCC2)cc1`: the activity change, negative = inhibition was inactive: 12.2%.

Regarding `CN(C)c1cccc(C(=O)NCC2(N(C)C)CCCCC2)c1`, the activity change, negative = inhibition is inactive: -2.74%.

Regarding `O=C(NCC1(N2CCCCC2)CCCCC1)c1cc([N+](=O)[O-])ccc1Cl`, the activity change, negative = inhibition is inactive: -13%.

Take `CN1[C@@H]2CC[C@H]1CC(OC(=O)C(O)(c1ccccc1)c1ccccc1)C2` (stereo not given in full): the activity change, negative = inhibition is inactive: 3.68%.

On to `COc1cc(SC)ccc1C(=O)NCC1(N(C)C)CCCCC1`, for which the activity change, negative = inhibition was inactive: 4.31%.

For `CCN(CC)CC(C)C(C)OC(=O)C(O)(c1ccccc1)c1ccccc1` (stereo not given), the activity change, negative = inhibition was inactive: 4.83%.

Regarding `CC(C)N1C(=O)CC2(CCN(CCOC(=O)C(O)(c3ccccc3)c3ccccc3)CC2)C1=O`, the activity change, negative = inhibition is inactive: -21.8%.

`Cc1ccc(C(=O)NCC2(N3CCCCC3)CCCCC2)cc1`: the activity change, negative = inhibition was inactive: 11.6%.

`CN(C)c1ccc(C(=O)NCC2(N(C)C)CCCCC2)cc1`: the activity change, negative = inhibition is inactive: -3.24%.

`CN(C)C1CCCC1OC(=O)C(O)(c1ccccc1)c1ccccc1` (stereo not given): the activity change, negative = inhibition was inactive: -0.859%.

With `Cc1ccccc1C(=O)NCC1(N2CCCCC2)CCCCC1`, the activity change, negative = inhibition was inactive: 9.8%.

For `O=C(NCC1(N2CCCCC2)CCCCC1)c1cc(F)c(F)cc1Cl`, the activity change, negative = inhibition was inactive: -2.84%.

Regarding `C=CCN1CCN(CCOC(=O)C(O)(c2ccccc2)c2ccccc2)CC1`, the activity change, negative = inhibition is inactive: 8.23%.

Regarding `COc1ccc(C(=O)NCC2(N(C)C)CCCCC2)cc1`, the activity change, negative = inhibition was inactive: 11.5%.

Regarding `O=C(NCC1(N2CCCCC2)CCCCC1)c1cccc(Br)c1`, the activity change, negative = inhibition was inactive: 6.83%.

Turning to `CCN1CCCC(OC(=O)C2(O)c3ccccc3C=Cc3ccccc32)C1` (stereo not given), the activity change, negative = inhibition was inactive: 13.2%.

Turning to `Cc1cc(C(=O)NCC2(N3CCCCC3)CCCCC2)ccc1[N+](=O)[O-]`, the activity change, negative = inhibition was inactive: 9.11%.

The values are drawn from PubChem BioAssay AID624288 (National Center for Advancing Translational Sciences (NCATS), 2012).
